Assay [1] concerns the target Vitamin D3 receptor (Homo sapiens) (UniProt P11473). Put plainly: qHTS assay to identify small molecule antagonists of the vitamin D receptor (VDR) signaling pathway (AID 743223; active means well fitted inhibition curve with a large enough effect in the signal ratio in the repeat runs, not every such curve was filed as active; the % refers to the signal ratio; further: on the % scale 0 is the no-effect control and ±100 the full control effect). As to conditions: VDR-UAS-bla HEK293T, beta-lactamase FRET ratio, 16 h; at 61 µM (top of the series) unless noted. The procedure, abridged:
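Antagonist mode uses 1alpha,25-dihydroxyvitamin D3 at 3 nM final as stimulus. VDR-bla cells receive compounds in DMSO, incubate 16 h at 37C, then a beta-lactamase FRET substrate for 2 h at room temperature before fluorescence measurement.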
In general terms: In qHTS, concentration-response curves come from the screen itself.

Sequences of proteins named here, by UniProt entry; tags and fusion partners are left off. A change or cut given only in a name is not applied to a line headed by its entry.
UniProt P11473: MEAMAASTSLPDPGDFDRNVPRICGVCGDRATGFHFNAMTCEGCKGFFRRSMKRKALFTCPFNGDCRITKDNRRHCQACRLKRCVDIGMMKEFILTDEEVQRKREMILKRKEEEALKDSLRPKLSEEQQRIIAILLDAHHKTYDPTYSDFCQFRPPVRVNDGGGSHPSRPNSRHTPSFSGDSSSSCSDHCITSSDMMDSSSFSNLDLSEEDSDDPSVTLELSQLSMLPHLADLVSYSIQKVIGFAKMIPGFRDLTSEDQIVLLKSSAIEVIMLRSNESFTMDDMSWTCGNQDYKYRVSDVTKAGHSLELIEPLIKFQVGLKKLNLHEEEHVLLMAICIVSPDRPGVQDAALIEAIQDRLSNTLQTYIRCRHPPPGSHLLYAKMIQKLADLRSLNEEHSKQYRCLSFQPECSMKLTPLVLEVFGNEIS
UniProt P19793: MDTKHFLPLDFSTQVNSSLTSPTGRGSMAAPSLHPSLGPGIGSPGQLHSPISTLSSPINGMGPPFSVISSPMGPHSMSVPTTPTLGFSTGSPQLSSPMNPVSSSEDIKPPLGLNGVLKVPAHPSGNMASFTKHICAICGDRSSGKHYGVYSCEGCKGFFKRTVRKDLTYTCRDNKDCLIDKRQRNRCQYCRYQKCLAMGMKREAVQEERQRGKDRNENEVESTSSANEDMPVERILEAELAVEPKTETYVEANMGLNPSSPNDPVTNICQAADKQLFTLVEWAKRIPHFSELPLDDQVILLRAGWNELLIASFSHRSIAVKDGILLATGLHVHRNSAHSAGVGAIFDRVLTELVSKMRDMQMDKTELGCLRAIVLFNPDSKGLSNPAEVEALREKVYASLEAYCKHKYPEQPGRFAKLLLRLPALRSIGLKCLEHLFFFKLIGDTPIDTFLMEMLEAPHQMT

Assay [2] in a line: qHTS assay to identify small molecule antagonists of the vitamin D receptor (VDR) signaling pathway - cell viability counter screen (AID 743225; active means well fitted curve in the direction sought with a large enough effect in the repeat runs; an effect the other way counts as inactive or inconclusive; further: nearly all actives have a fitted effect of over 50% in size; further: potency means the concentration at half of the fitted maximal effect). The procedure, abridged: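 Read-out: CellTiter-Glo luminescence measured 30 min after reagent addition at room temperature. Cells were VDR-bla HEK 293T exposed 16 h at 37C, 5% CO2, to compound with 3 nM final calcitriol agonist.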
Assay [3] in a line: qHTS assay to identify small molecule agonists of the NFkB signaling pathway (AID 1159509; active means well fitted curve in the direction sought with a large enough effect in the signal ratio in the repeat runs, not every such curve was filed as active; the % refers to the signal ratio; further: on the % scale 0 is the no-effect control and ±100 the full control effect). The conditions noted are these: NFkB-bla ME-180 cells, beta-lactamase FRET ratio, 5 h; at 61 µM (top of the series) unless noted. The procedure, abridged:
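Readout: FRET fluorescence, 405 nm excitation, 460/530 nm emission; beta-lactamase expression disrupts FRET. Cells: ME-180 stably carrying NF-kB-driven bla reporter. Compound exposure 5 hr, 37 C, 5% CO2.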

The nature of assay [4]: qHTS assay to identify small molecule agonists of the NFkB signaling pathway - cell viability counter screen (AID 1159515). Further: on the % scale 0 is the no-effect control and ±100 the full control effect; nearly all actives have a fitted effect of over 55% in size. As to conditions: NFkB-bla ME-180 viability, CellTiter-Glo luminescence, 5 h; at 61 µM (top of the series) unless noted. A digest of the protocol: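 ME-180 NFkB-bla cells, 2,000/well; overnight attach; compound 5 hr, 37 C/5% CO2; LiveBLAzer substrate 1.5 hr RT; then CellTiter-Glo in same wells, 30 min RT, luminescence read.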

Assay [5] can be described thus: qHTS assay to identify small molecule agonists of the endoplasmic reticulum stress response signaling pathway (AID 1159516; active means well fitted activation curve with a large enough effect in the signal ratio in the repeat runs, not every such curve was filed as active; the % refers to the signal ratio; further: on the % scale 0 is the no-effect control and ±100 the full control effect). The conditions noted are these: ESRE-bla HeLa, ER stress beta-lactamase reporter, 5 h; at 61 µM (top of the series) unless noted. The procedure, abridged: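 HeLa ESRE-bla reporter line; cpd 5 h, 37 C/5% CO2; LiveBLAzer B/G FRET substrate 2 h RT; ex 405, em 460/530 nm.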

In assay [6] the target is Nuclear receptor ROR-gamma (Homo sapiens) (UniProt P51449). The experiment in a line: qHTS assay to identify small molecule antagonists of the retinoid-related orphan receptor gamma (ROR-gamma) signaling pathway (AID 1159521; active means well fitted curve in the direction sought with a large enough effect in the repeat runs; an effect the other way counts as inactive or inconclusive;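 further: CHO cells with doxycycline inducible ROR-gamma driving an RORE luciferase reporter; top concentration of the series differs between compounds; on the % scale 0 is the no-effect control and ±100 the full control effect; nearly all actives have a fitted effect of over 50% in size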). The conditions noted are these: Tet-on RORgamma CHO cells, RORE-luciferase, 16 h.
Assay [7] is described as follows: qHTS assay to identify small molecule agonists of the AP-1 signaling pathway - cell viability counter screen (AID 1159525). Further: nearly all actives have a fitted effect of over 55% in size. The conditions noted are these: ME-180 AP-1-bla cells viability, ATP luminescence, 5 h; at 76.8 µM (top of the series) unless noted. A digest of the protocol:
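Each titration point was normalised to DMSO and tetra n-octyl ammonium bromide controls. The read was Cell Titer Glo luminescence after 30 min at RT, following 5 h compound exposure of ME-180 AP-1-bla cells at 37 °C.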

Assay [8] is described as follows: qHTS assay to identify small molecule agonists of the AP-1 signaling pathway (AID 1159526). Further: on the % scale 0 is the no-effect control and ±100 the full control effect. The conditions noted are these: ME-180 (cervical carcinoma) AP-1-bla reporter, beta-lactamase FRET ratio, 5 h; at 76.8 µM (top of the series) unless noted.
For assay [9], the target named is Retinoic acid receptor RXR-alpha (Homo sapiens) (UniProt P19793). The experiment in a line: qHTS assay to identify small molecule agonists of the RXR signaling pathway (AID 1159527). Further: on the % scale 0 is the no-effect control and ±100 the full control effect; nearly all actives have a fitted effect of over 35% in size. As to conditions: HEK293T RXRa-UAS-bla, beta-lactamase ratio, 16 h.
Assay [10] is described as follows: qHTS assay to identify small molecule agonists of the RXR signaling pathway - cell viability counter screen (AID 1159529; active means well fitted curve in the direction sought with a large enough effect in the repeat runs; an effect the other way counts as inactive or inconclusive;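 further: HEK 293T cells carrying an RXR-alpha UAS beta-lactamase reporter; on the % scale 0 is the no-effect control and ±100 the full control effect; nearly all actives have a fitted effect of over 50% in size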). The procedure, abridged:
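HEK 293T RXRa-bla cells, 2% CS-FBS; 5 h settle; cpd 16 h 37 C, 5% CO2; CellTiter-Glo 30 min RT, luminescence. Tetraoctyl ammonium bromide as positive control.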

The list shows a part of the results, in another mix than the full data. Records with an inconclusive call do not appear. Activity calls are given as the source filed them. Unless noted, the call rests on the fitted dose curve.

With `ClP(Cl)c1ccccc1`, the activity change, negative = inhibition in assay [1] was inactive: 0.105%; in assay [6] (at 92.4 µM (top of the series)), inactive: -11%. Moreover, the Potency entry in assay [2] and in assay [10] was “inactive” in each case. The activation was inactive: -0.797% in [3], inactive: 0% in assay [5], inactive: -3.47% in assay [8] and inactive: 4.71% in [9] (at 76.8 µM (top of the series)). Further, the activity, negative = cytotoxic in assay [4] is inactive: 11.7%. Further, the viability change, negative = cytotoxic in [7] was inactive: 0.642%.
For the molecule `O=[P+](Oc1ccccc1)Oc1ccccc1`, the activity change, negative = inhibition is inactive: 6.64% in assay [1] and inactive: -7.03% in [6] (at 92.4 µM (top of the series)). For the same molecule, the Potency result in [2] and in assay [10] was “inactive” each time. In addition, the activity, negative = cytotoxic in [4] was inactive: -2.39%. Moreover, the activation is inactive: -0.549% in assay [5] and inactive: 6.32% in [8]. In addition, the viability change, negative = cytotoxic in assay [7] is inactive: 2.72%.
Turning to `CCC(C)(OOC(C)(C)C)OOC(C)(C)C`, in assay [7], the viability change, negative = cytotoxic is inactive: 2.27% [at 15.8 µM]. For the same molecule, the activation in assay [8] is inactive: 8.35% [at 15.8 µM]; in [9] (at 15.8 µM (top of the series)) it was inactive: 5.65%. Moreover, the activity change, negative = cytotoxicity in assay [10] is inactive: -1.76% [at 15.8 µM].
With `CCCCOP(OCCCC)OCCCC`, the activity change, negative = inhibition in [6] (at 92.4 µM (top of the series)) was inactive: 1.59%. Further, the viability change, negative = cytotoxic in assay [7] is inactive: 0.802%. Besides, the values for the activation in assay [8] and in assay [9] (at 76.8 µM (top of the series)) were inactive: 1.79% and inactive: 4.66%, respectively. Besides, the Potency entry in assay [10] is “inactive”.
For `O=[p+]1oc2ccccc2c2ccccc21` (centres undefined), the Potency result in [2] and in assay [10] was “inactive” throughout. Also, the activation in assay [3] is inactive: -0.284%; in assay [5], inactive: -3.16%; in [8], inactive: -3.61%; in [9] (at 76.8 µM (top of the series)), inactive: 4.38%. Also, the activity, negative = cytotoxic in assay [4] is inactive: -7.68%. Further, in assay [6] (at 92.4 µM (top of the series)), the activity change, negative = inhibition was inactive: 5.94%. The viability change, negative = cytotoxic in assay [7] was inactive: 1.07%.
With `COP(=S)(Cl)OC`, the activity change, negative = inhibition was inactive: 21.1% [at 78.8 µM] in assay [1] and inactive: -12.5% in assay [6] (at 92.4 µM (top of the series)). Moreover, the values for the activation in [3] and in [5] were inactive: -0.998% [at 78.8 µM] and inactive: 1.47% [at 78.8 µM], respectively. The activity, negative = cytotoxic in [4] was inactive: -4.2% [at 78.8 µM]. In [7], the viability change, negative = cytotoxic was inactive: -0.0699%. Also, the Potency result in assay [10] was “inactive”.
Regarding `CCCCC(CC)CO[P+](=O)OCC(CC)CCCC` (centres undefined), the activity change, negative = inhibition in [1] is inactive: 2.33%; in assay [6] (at 92.4 µM (top of the series)) it was inactive: -4.36%. Moreover, the Potency entry in assay [2] and in [10] was “inactive” each time. Further, the activation in assay [3] is inactive: -0.3%; in assay [8], inactive: -3.45%; in [9] (at 76.8 µM (top of the series)), inactive: -7.85%. The activity, negative = cytotoxic in [4] was inactive: -1.13%. Besides, in assay [7], the viability change, negative = cytotoxic was inactive: -0.259%.
Turning to `O=P(Cl)(Cl)c1ccccc1`, the results for the activity change, negative = inhibition in [1] and in assay [6] (at 92.4 µM (top of the series)) were inactive: 20.9% and inactive: 17%, respectively. Besides, the Potency result in assay [2] and in [10] was “inactive” throughout. Moreover, the activity, negative = cytotoxic in assay [4] was inactive: 11.4%. Also, the values for the activation in assay [5], in assay [8] and in [9] (at 76.8 µM (top of the series)) were inactive: 0.0717%, inactive: -3.24% and inactive: 8.97%, respectively. In assay [7], the viability change, negative = cytotoxic is inactive: 14.2%.
Take `CCOP(=S)(CC)Sc1ccccc1` (centres undefined): the activity change, negative = inhibition in [1] was inactive: 1.82%; in assay [6] (at 92.4 µM (top of the series)) it was inactive: 4.72%. In addition, the Potency entry in assay [2] and in assay [10] was “inactive” throughout. In addition, the activation in assay [3] is inactive: 0.816%; in [5], inactive: -0.0559%; in assay [8], inactive: 8.92%; in assay [9] (at 76.8 µM (top of the series)), inactive: 0.625%. Also, in assay [4], the activity, negative = cytotoxic was inactive: -4.55%. Moreover, in [7], the viability change, negative = cytotoxic was inactive: 3.67%.
Regarding `CN(C(=O)Cc1cccc2occc12)[C@H]1CC[C@@]2(CCCO2)C[C@@H]1N1CCCC1`, the activity change, negative = inhibition in assay [1] was inactive: 0.141%. For the same molecule, the Potency result in [2] and in assay [10] was “inactive” each time. The activation in [3] was inactive: -0.0074%; in assay [5] it was inactive: 3.7%; in assay [8], inactive: 0.903%. Also, the activity, negative = cytotoxic in [4] was inactive: -3.59%. Besides, the viability change, negative = cytotoxic in assay [7] was inactive: 6.87%.
With `O=C(Cl)OCCOC(=O)Cl`, the activity change, negative = inhibition in assay [6] (at 92.4 µM (top of the series)) was inactive: 11.9%. Further, the viability change, negative = cytotoxic in assay [7] was inactive: 3.84%. Also, the activation in assay [8] is inactive: -4.53%; in assay [9] (at 76.8 µM (top of the series)) it was inactive: 0.152%. In addition, in assay [10], the Potency entry was “inactive”.
As for `CN(C(=O)Cc1ccc(Cl)c(Cl)c1)[C@H]1CC[C@@]2(CCCO2)C[C@@H]1N1CCCC1`, the values for the activity change, negative = inhibition in assay [1] and in [6] (at 42.5 µM (top of the series)) were inactive: 3.99% and inactive: -8.84%, respectively. Further, the Potency result in assay [2] and in assay [10] was “inactive” in each case. For the same molecule, the activation in assay [3] was inactive: 0.0264%; in assay [5], inactive: -0.137%; in assay [8], inactive: -1.17% [at 35.3 µM]; in assay [9] (at 35.3 µM (top of the series)), inactive: -7.75%. Also, in [4], the activity, negative = cytotoxic is inactive: 0.463%. Besides, the viability change, negative = cytotoxic in assay [7] is inactive: 7.54% [at 35.3 µM].
With `CC(C)OP(=S)(OC(C)C)SCCNS(=O)(=O)c1ccccc1`, the Potency in assay [2] is active: 49 µM. Moreover, the activity, negative = cytotoxic in assay [4] is inactive: -3.43%. Besides, the activation in [5] is inactive: 1%. Further, in assay [7], the viability change, negative = cytotoxic is inactive: -5.82%.
In the case of `CN(N=O)C(=N)N[N+](=O)[O-]`, the values for the activity change, negative = inhibition in assay [1] and in assay [6] (at 92.4 µM (top of the series)) were inactive: 20.5% and inactive: -21.1%, respectively. Besides, the Potency result in assay [2] and in [10] was “inactive” throughout. The viability change, negative = cytotoxic in assay [7] was inactive: -3.61%. Moreover, the activation in assay [9] (at 76.8 µM (top of the series)) was inactive: -7.57%.

Source of the values: PubChem BioAssay (Tox21).
